Values quoted from earlier work, collected in US9545418B2, “ON01910.Na enhances chemotherapeutic agent activity in drug-resistant tumors” (THE JOHNS HOPKINS UNIVERSITY, priority 2008, dated 2017).
“And” between values parts separate entries of the source, which are not always exact repeats. Identical values can stand only once. Like-named read-outs stand apart in the source and are kept apart here.

Conditions: cited from earlier work; for deaths (animals died/treated) / STD/LD10: Rats; for STD/LD10: IV bolus

## COc1cc(OC)c(/C=C/S(=O)(=O)Cc2ccc(OC)c(NCC(=O)O)c2)c(OC)c1 [ON-01910-Na]
2x/wk, 4 wk, 900 mg/m^2
  deaths (animals died/treated): 1/24
2 x/wk, 4 wks, 2100 mg/m^2
  deaths (animals died/treated): 5/9
2 x/wk, 4 wks
  STD/LD10: < 2100 mg/m^2
7 day repeat dosing, 1200 mg/m^2
  deaths (animals died/treated): 2 of 13 and 2/13
28 day repeat, 450 mg/m^2
  deaths (animals died/treated): 1/36
28 day repeat, 900 mg/m^2
  deaths (animals died/treated): 11/36
28 day repeat
  STD/LD10: < 900 mg/m^2
Single dose, 3000 mg/m^2
  deaths (animals died/treated): 9 of 11 and 9/11
Single dose
  STD/LD10: < 3000 mg/m^2
Rat and dog toxicology studies
  myelotoxicity, neuropathy, or cardiotoxicity: no evidence of significant myelotoxicity, neuropathy, or cardiotoxicity
